Results: patent US6069244A, “Phthalocyanine compound, method for production thereof, and use thereof” (Nippon Shokubai Co., Ltd., priority 1998, dated 2000)

Key:
Type in all cases: physicochemical
[1] = maximum absorption wavelength and extinction coefficient by spectrophotometer in ethyl cellosolve
[2] = transmittance to visible ray of chloroform solution diluted to minimum transmittance of 5 to 6% at 750 to 1,100 nm; details: 1 cm quartz cell, minimum transmittance at 750 to 1,100 nm 5 to 6%, JIS R3106
[3] = solubility in toluene and methylethyl ketone, visual observation; details: room temperature (25° C.)
Experimental: The data of solubility shown in Table 1 represent the results of the rating which was conducted on the four-point scale, wherein .circleincircle. stands for a solubility of not less than 5% by weight, .smallcircle. for a solubility of not less than 1% by weight and less than 5% by weight, Δ for a solubility of not less than 0.1% by weight and less than 1% by weight, and X for a solubility of less than 0.1% by weight.

Substance: penta(4-methoxyphenylamino)deca(4-methylphenyl-thio) copper phthalocyanine [Control 3]
- Maximum absorption wavelength [1]: 849 nm
- Transmittance to visible ray [2]: 61%
- Solubility, MEK ([3]; methylethyl ketone): .smallcircle. (a solubility of not less than 1% by weight and less than 5% by weight)
- Solubility, Toluene ([3]; toluene): .circleincircle. (a solubility of not less than 5% by weight)
